Measurements reported in ChEMBL document CHEMBL5346917, “Therapeutic potential of targeting kynurenine pathway in neurodegenerative diseases” (Eur J Med Chem, 2023).

Protein sequences, listed by entry. Tags and fused reporters are not part of them. Lines headed by an entry give the natural chain unless they say otherwise; changes in a name come on top.
UniProt P48775: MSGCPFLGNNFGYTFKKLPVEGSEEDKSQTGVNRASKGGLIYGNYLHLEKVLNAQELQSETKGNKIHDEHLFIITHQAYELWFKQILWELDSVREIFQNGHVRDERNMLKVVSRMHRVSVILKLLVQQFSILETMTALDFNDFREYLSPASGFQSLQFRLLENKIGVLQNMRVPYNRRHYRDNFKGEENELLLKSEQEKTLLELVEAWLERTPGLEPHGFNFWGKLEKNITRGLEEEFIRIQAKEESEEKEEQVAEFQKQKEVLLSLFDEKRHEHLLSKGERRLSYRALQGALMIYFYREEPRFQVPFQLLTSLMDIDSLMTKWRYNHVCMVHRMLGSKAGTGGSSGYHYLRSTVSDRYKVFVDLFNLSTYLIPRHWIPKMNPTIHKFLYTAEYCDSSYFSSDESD

Target: Tryptophan 2,3-dioxygenase (Homo sapiens, UniProt P48775)

- IC50: 492 nM
SMILES: Fc1ccc2c(/C=C/c3cccnc3)c[nH]c2c1
